Biological target: human FSH receptor (human) (UniProt P23945)
Assay: cell-based or functional assay

Substance	EC50 of GloSensor luminescence (cAMP), HEK 293 hFSHR cells, pFSH alone [M]	EC50 of GloSensor luminescence (cAMP), HEK 293 hFSHR cells, pFSH complexed with the CF12 antibody [M]	EC50 of GloSensor luminescence (cAMP), HEK 293 hFSHR cells, oFSH alone [nM]	EC50 of GloSensor luminescence (cAMP), HEK 293 hFSHR cells, oFSH complexed with the CF12 antibody [nM]
porcine FSH (from UniProt P01219 25-120; P01228 21-129) (ligand)	1.92e-09	3.69e-10	–	–
ovine FSH (from UniProt P01218 25-120; P01227 20-129) (ligand)	–	–	2.29	0.198

— US20170190773A1
